The list shows a part of the results, in another mix than the full data. Records with an inconclusive call do not appear. The source made the active and inactive calls. Calls come from the whole dose curve; as a rule, active = well fitted inhibition curve with a large enough effect; inconclusive = small, poorly fitted or top-dose-only effect, or effect the other way; inactive = flat fitted curve, though single readings scatter.
target: Fructose-bisphosphate aldolase (Giardia intestinalis (strain ATCC 50803 / WB clone C6)) (UniProt A8B2U2); test: qHTS Assay for Inhibitors of Fructose-1,6-bisphosphate Aldolase from Giardia Lamblia; conditions: purified Giardia FBPA; series mostly up to 59.6 µM; activity, negative = inhibition: at the top concentration; note: nearly all actives have a fitted effect of over 55% in size
% is set by controls: 0 for no effect and ±100 for the full control effect; potency is the fitted concentration of half-maximal effect.

Protein sequences, listed by entry. Tags and fused reporters are not part of them.
UniProt A8B2U2, whole entry: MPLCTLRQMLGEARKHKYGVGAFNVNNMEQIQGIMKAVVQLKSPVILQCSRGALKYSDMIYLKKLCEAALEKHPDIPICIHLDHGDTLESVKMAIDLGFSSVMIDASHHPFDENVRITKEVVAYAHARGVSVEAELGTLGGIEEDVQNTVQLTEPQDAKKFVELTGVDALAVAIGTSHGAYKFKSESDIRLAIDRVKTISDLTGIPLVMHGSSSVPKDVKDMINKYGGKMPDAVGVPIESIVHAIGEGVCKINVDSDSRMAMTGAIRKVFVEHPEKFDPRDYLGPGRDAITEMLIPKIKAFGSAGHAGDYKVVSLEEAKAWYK

Row | Compound | activity, negative = inhibition | Potency
1 | CP(=O)(Nc1ccccc1F)Oc1ccccc1 (stereo unspecified) | inactive: 4.01% | 
2 | CC(C)c1ccc(OP(C)(=O)Nc2ccc(SC(F)(F)F)cc2)cc1 (stereo unspecified) | inactive: -5.76% | 
3 | O=C(OCCN1CCN(CCOCc2ccccc2)CC1)C(O)(c1ccccc1)c1ccccc1 | inactive: -15.9% | 
4 | CCOC(=O)c1ccc(NP(C)(=O)Oc2ccc(F)cc2)cc1 (stereo unspecified) | inactive: -4.05% | 
5 | COc1ccc(OP(C)(=O)Nc2ccc(SC(F)(F)F)cc2)cc1 (stereo unspecified) | inactive: -2.42% | 
6 | CCN(CC)CCCOC(=O)C(O)(c1ccccc1)C1CCCCC1 (stereo unspecified) | inactive: -3.9% | 
7 | CP(=O)(Nc1ccccc1)Oc1ccc(F)cc1 (stereo unspecified) | inactive: 2.69% | 
8 | CCCCCOc1ccc(NP(C)(=O)Oc2ccc(Cl)cc2Cl)cc1 (stereo unspecified) | inactive: -19.9% | 
9 | COc1ccc(OP(C)(=O)Nc2cccc(Br)c2)cc1 (stereo unspecified) | inactive: -0.719% | 
10 | CN(C)CCOC(=O)C(O)(c1ccccc1)C1CCCCC1 (stereo unspecified) | inactive: 0.872% | 
11 | COc1ccc(NP(C)(=O)Oc2ccccc2OC)cc1 (stereo unspecified) | inactive: 7.96% | 
12 | O=[N+]([O-])c1ccc(OP2(=O)COCCO2)cc1 (stereo unspecified) | inactive: -3.19% | 
13 | Cc1cc(-c2cccc3ccccc23)c(C)cn1.O=[N+]([O-])c1cc([N+](=O)[O-])c(O)c([N+](=O)[O-])c1 | inactive: 13.2% | 
14 | CP(=O)(Nc1ccc(SC(F)(F)F)cc1)Oc1ccc(F)cc1 (stereo unspecified) | inactive: 1.43% | 
15 | CCOP(C)(=S)SCC(=O)NC(C)(CC)C(=O)O (stereo unspecified) | inactive: 1.51% | 
16 | CP(=O)(Nc1ccc2c(c1)OCCO2)Oc1ccccc1 (stereo unspecified) | inactive: -0.395% | 
17 | Cc1ccccc1NP(C)(=O)Nc1ccccc1C | inactive: 3.93% | 
18 | CCN(CCCl)Cc1ccccc1C | inactive: -16.1% | 
19 | COc1ccc(OP(C)(=O)Nc2ccc(Br)cc2)cc1 (stereo unspecified) | inactive: 1.76% | 
20 | CCN(CC)CC(O)COC(=O)C(O)(c1ccccc1)C1CCCCC1 (stereo unspecified) | inactive: -10.1% | 
21 | OCCSCCO | inactive: 5.49% | 

Row | Compound | activity, negative = inhibition | Potency
22 | O=C(OCCCN1CCCC1)C(O)(c1ccccc1)C1CCCCC1 (stereo unspecified) | inactive: 5.11% | 
23 | COc1ccccc1OP(C)(=O)Nc1c(C)n(C)n(-c2ccccc2)c1=O (stereo unspecified) | inactive: 13.6% | 
24 | CCc1ccc(OP(C)(=O)Nc2cccnc2)cc1 (stereo unspecified) | inactive: 5.06% | 
25 | CP(=O)(Oc1ccccc1)N1CCOC1=O (stereo unspecified) | inactive: 7.24% | 
26 | COc1ccccc1OP(C)(=O)Nc1ccccc1Br (stereo unspecified) | inactive: 4.84% | 
27 | CC(C)(C)c1ccc(OP(C)(=O)O)cc1 | inactive: 0.0437% | 
28 | CCOC(=O)c1ccc(NP(C)(=O)Oc2ccc(Cl)cc2)cc1 (stereo unspecified) | inactive: 8.2% | 
29 | CP(=O)(OC12CC3CC(CC(C3)C1)C2)OC12CC3CC(CC(C3)C1)C2 | inactive: 1.45% | 
30 | C/C1=C2N=C(/C=C3N=C(/C(C)=C4\[N-][C@@](C)([C@H]5N=C1[C@@](C)(CCC(=O)NC[C@H](C)OP(=O)([O-])O[C@@H]1[C@H](O)[C@H](n6cnc7cc(C)c(C)cc76)O[C@@H]1CO)[C@@H]5CC(N)=O)[C@](C)(CC(N)=O)[C@H]4CCC(N)=O)[C@@](C)(CC(N)=O)[C@@H]\3CCC(N)=O)C(C)(C)[C@@H]/2CCC(N)=O.[C-]#N.[Co+3] | inactive: -4.41% [at 21.7 µM] | 
31 | Cc1cc(C)cc(OP(C)(=O)Nc2cccc(C(F)(F)F)c2)c1 (stereo unspecified) | inactive: -3.46% | 
32 | COc1ccccc1OP(C)(=O)Nc1ccc(C)c(C)c1 (stereo unspecified) | inactive: 1.75% | 
33 | COc1ccc(OP(C)(=O)Nc2ccccc2Br)cc1 (stereo unspecified) | inactive: 3.52% | 
34 | CP(=O)(Nc1ccc(Cl)cc1Cl)Oc1ccccc1 (stereo unspecified) | inactive: 3.95% | 
35 | CP(=O)(OCCOc1ccccc1)OCCOc1ccccc1 | inactive: -3.81% | 
36 | COc1ccccc1OP(C)(=O)Nc1ccc(Br)cc1 (stereo unspecified) | inactive: 3.99% | 
37 | COc1ccc(OP(C)(=O)Nc2ccccn2)cc1 (stereo unspecified) | inactive: 1.93% | 
38 | CN(C)CCOC(=O)C(O)(c1ccccc1)C1CCCC1 (stereo unspecified) | inactive: -0.522% | 
39 | Cc1c(NP(C)(=O)Oc2ccc(C(C)C)cc2)c(=O)n(-c2ccccc2)n1C (stereo unspecified) | inactive: 5.66% | 
40 | O=[N+]([O-])c1cc([N+](=O)[O-])c(Nc2ccccn2)c([N+](=O)[O-])c1 |  | active: 3.15 µM
41 | COc1ccccc1OP(C)(=O)Nc1ccc(C)cc1C (stereo unspecified) | inactive: 0.559% | 
42 | CP(=O)(Nc1ccccn1)Oc1ccccc1 (stereo unspecified) | inactive: -0.0666% | 

Row | Compound | activity, negative = inhibition | Potency
43 | CCc1ccc(OP(C)(=O)O)cc1 | inactive: 3.21% | 
44 | CCN(CC)CCCOC(=O)C(O)(c1ccccc1)c1ccccc1 | inactive: 4.56% | 
45 | O=C(O)C1(O)c2ccccc2-c2ccccc21 | inactive: -4.67% | 
46 | Cc1cccc(C)c1OP(C)(N)=O (stereo unspecified) | inactive: -0.411% | 
47 | O=C(O)C(O)(c1ccccc1)c1ccccc1 | inactive: 7.37% | 
48 | CC(C)(C)c1ccc(OP(C)(=O)Nc2ccc(SC(F)(F)F)cc2)cc1 (stereo unspecified) | inactive: -8.17% | 
49 | Cc1ccc(NP(C)(=O)Oc2ccccc2)c(C)c1 (stereo unspecified) | inactive: 13.5% | 
50 | COc1ccccc1OP(C)(=O)Nc1ccc(C)cc1 (stereo unspecified) | inactive: -0.83% | 
51 | CCOC(=O)c1ccc(NP(C)(=O)Oc2ccccc2)cc1 (stereo unspecified) | inactive: 7.5% | 
52 | Cc1cc(C)cc(OP(C)(N)=O)c1 (stereo unspecified) | inactive: 3.12% | 
53 | COc1ccc(OP(C)(=O)Nc2cccc(F)c2)cc1 (stereo unspecified) | inactive: 3.68% | 
54 | COc1ccccc1OP(C)(=O)Nc1cc(Cl)ccc1C (stereo unspecified) | inactive: -1.88% | 
55 | CP(=S)(Nn1cnnc1)Oc1ccccc1 (stereo unspecified) | inactive: -0.0583% | 
56 | CP(=O)(Nc1ccccc1Br)Oc1ccccc1 (stereo unspecified) | inactive: -4.82% | 
57 | COc1ccccc1OP(C)(=O)Nc1ccccc1 (stereo unspecified) | inactive: 1.09% | 
58 | CP(=O)(Oc1ccccc1)OC(c1ccccc1)C(F)(F)F (stereo unspecified) | inactive: 0.76% | 
59 | Cc1cccc(C)c1OP(C)(=O)Nc1ccc(SC(F)(F)F)cc1 (stereo unspecified) | inactive: -9.92% | 
60 | CP(=O)(Nc1ccc(SC(F)(F)F)cc1)Oc1ccc(Cl)cc1 (stereo unspecified) | inactive: -1.96% | 
61 | Cc1cc(C)cc(OP(C)(=O)Nc2ccc(SC(F)(F)F)cc2)c1 (stereo unspecified) | inactive: 2.88% | 
62 | CP(=O)(NC(=O)Nc1ccccc1)Oc1ccccc1 (stereo unspecified) | inactive: 5.2% | 
63 | CCc1ccc(OP(C)(=O)N2CCN(c3ccc([N+](=O)[O-])cc3)CC2)cc1 (stereo unspecified) | inactive: -1.54% | 

Row | Compound | activity, negative = inhibition | Potency
64 | CCOC(=O)c1ccc(NP(C)(=O)Oc2ccc(OC)cc2)cc1 (stereo unspecified) | inactive: 0.0346% | 
65 | CCOP(C)(=S)SCC(=O)NC(C)C(=O)O (stereo unspecified) | inactive: 11.5% | 
66 | CP(=O)(Nc1ccccn1)Oc1ccc(Cl)cc1 (stereo unspecified) | inactive: -0.844% | 
67 | O=[N+]([O-])c1cc([N+](=O)[O-])c(-n2nnc3ccccc32)c([N+](=O)[O-])c1 | inactive: 28.5% | 
68 | CC(C)N(CCCl)C(C)C | inactive: -16.2% | 
69 | O=[N+]([O-])c1cc([N+](=O)[O-])c(Nc2nnnn2CCO)c([N+](=O)[O-])c1 | inactive: -12.3% | 
70 | COc1ccccc1OP(C)(=O)Nc1c(C)cccc1C (stereo unspecified) | inactive: 4.06% | 
71 | CN1CCCCC1COC(=O)C1(O)c2ccccc2CCc2ccccc21 (stereo unspecified) | inactive: 4.84% | 
72 | CCCOc1ccc(NP(C)(=O)Oc2ccc(Cl)cc2)cc1 (stereo unspecified) | inactive: -0.527% | 
73 | CP(=O)(Nc1ccc(SC(F)(F)F)cc1)Oc1ccccc1 (stereo unspecified) | inactive: 11.6% | 
74 | CC1=NCCc2c1[nH]c1ccccc21.O=[N+]([O-])c1cc([N+](=O)[O-])c(O)c([N+](=O)[O-])c1 | inactive: 17.1% | 
75 | O=[N+]([O-])OCC(CO[N+](=O)[O-])(CO[N+](=O)[O-])CO[N+](=O)[O-] | inactive: 5.38% | 
76 | COc1ccccc1OP(C)(=O)Nc1cccc(Br)c1 (stereo unspecified) | inactive: -3.91% | 
77 | CCOC(=O)c1ccc(NP(C)(=O)Oc2cc(C)cc(C)c2)cc1 (stereo unspecified) | inactive: 7.78% | 
78 | Cc1cc(C)cc(OP(C)(=O)Nc2ccc(C)cc2C)c1 (stereo unspecified) | inactive: 15% | 
79 | Cc1ccc(C)c(NP(C)(=O)Oc2ccccc2)c1 (stereo unspecified) | inactive: 2.76% | 
80 | Cc1cc(C)cc(OP(C)(=O)Nc2ccccn2)c1 (stereo unspecified) | inactive: 4.35% | 
81 | CP(=O)(Nc1cccc(Br)c1)Oc1ccccc1 (stereo unspecified) | inactive: 1.04% | 

From PubChem BioAssay AID2451 (National Center for Advancing Translational Sciences (NCATS), 2010)
